scFv variants of Ab-95 (light chain) against a SARS-CoV-2 spike peptide

The measurements come from Engelhart et al. 2022 (doi:10.1038/s41597-022-01779-4) through the FLAb antibody collection.

Target: peptide PDVDLGDISGINAS, taken from heptad repeat 2 (HR2) of SARS-CoV-2 spike.

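AAYL52 was designed without a model: most single CDR substitutions and a random sample of double and triple ones. AlphaSeq pools MATa yeast showing the antibodies with MATalpha yeast showing the peptide. Pairs that bind mate more often; barcode pairs of the diploids are counted by sequencing. The ratio of observed to expected reads was calibrated, replicate by replicate, on BCL2-family standards whose Kd was known from biolayer interferometry. Mating was done three times.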

Each scFv is VH, the linker GGGGSGGGGSGGGGS, VL, as in the parent Ab-95, and differs from it in the CDRs of the light chain only.
VH: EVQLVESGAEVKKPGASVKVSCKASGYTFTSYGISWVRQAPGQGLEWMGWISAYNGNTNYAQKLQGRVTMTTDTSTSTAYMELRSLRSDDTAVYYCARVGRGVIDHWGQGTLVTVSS
VL: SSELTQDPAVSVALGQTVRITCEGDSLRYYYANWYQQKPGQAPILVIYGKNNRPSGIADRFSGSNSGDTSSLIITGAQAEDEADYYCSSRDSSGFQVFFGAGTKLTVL

Each variant's VL is given in full. Scale: log10 of Kd in nM, estimated from mating counts; low values are strong binders. "nd" means that the variant was in the library but no mating with the target was seen in that replicate; the authors take this as a sign of poor binding, and no number exists. Three control strains display no target. For library AAYL52, 28% of the pairings with them gave a signal, with a median of 3.91 and one signal in twenty below 2.90, so weak values seen in few replicates may be background. Also given: how often the same scFv was detected with the empty control strains. For reference, the parent read 2.31 as the reference entry and 2.25 as a member of this library.

The variant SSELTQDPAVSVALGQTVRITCEGCSLRYYYANWYQQKPGQAPILVIYGKNNRTSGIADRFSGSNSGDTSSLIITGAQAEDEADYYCSSRRSSGFQVFFGAGTKLTVL showed nd, nd, nd (controls 2 of 9).
The variant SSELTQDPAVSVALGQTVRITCEGDSTRYYGANWYQQKPGQAPILVIYGKNNRPSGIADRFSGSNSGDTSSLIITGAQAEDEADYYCSSRDCSGFQVFFGAGTKLTVL showed 2.46, 2.54, 2.05 (controls 5 of 9).
The variant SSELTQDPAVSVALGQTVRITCEGDSLRYFYANWYQQKPGQAPILVIYGKNNRPSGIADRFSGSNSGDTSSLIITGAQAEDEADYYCFSCDSSGFQVFFGAGTKLTVL showed 3.20, 2.37, 2.27 (controls 2 of 9).
The variant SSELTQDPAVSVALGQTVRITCEGDSLRYWYANWYQQKPGQAPILVIYGKNNRPSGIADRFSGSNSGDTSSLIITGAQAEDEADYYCESTDSSGFQVFFGAGTKLTVL showed 3.96, nd, 3.00 (controls 2 of 9).
The variant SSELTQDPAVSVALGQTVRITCEGDSLRYYYANWYQQKPGQAPILVIYGKNCRPSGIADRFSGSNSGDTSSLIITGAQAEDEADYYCSSDDSSGFQVFFGAGTKLTVL showed 4.17, 2.82, nd (controls 4 of 9).
The variant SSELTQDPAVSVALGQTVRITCEGDSLRYYYANWYQQKPGQAPILVIYGKNNIPSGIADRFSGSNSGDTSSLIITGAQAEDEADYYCSSESSSGFQVFFGAGTKLTVL showed 3.73, 2.52, 3.00 (controls 2 of 9).
The variant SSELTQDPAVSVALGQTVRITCYGDSLRYYYANWYQQKPGQAPILVIYGGNNRPSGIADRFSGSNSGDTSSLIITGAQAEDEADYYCSSRDLSGFQVFFGAGTKLTVL showed 2.74, 2.74, 3.11 (controls 2 of 9).
The variant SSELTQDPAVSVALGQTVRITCEGDSLRQYYANWYQQKPGQAPILVIYTKNNRPSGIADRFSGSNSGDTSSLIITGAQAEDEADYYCSSSDSSGFQVFFGAGTKLTVL showed nd, nd, nd (controls 2 of 9).
The variant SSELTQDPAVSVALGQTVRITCEGDSLDYYDANWYQQKPGQAPILVIYGKNNRSSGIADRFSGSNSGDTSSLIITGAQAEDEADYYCSSRDSSGFQVFFGAGTKLTVL showed 1.99, 2.17, 1.68 (controls 0 of 9).
The variant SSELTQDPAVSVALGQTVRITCEGDSLRYYYANWYQQKPGQAPILVIYGKNCRPEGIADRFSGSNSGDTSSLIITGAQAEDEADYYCSSRDSSQFQVFFGAGTKLTVL showed 2.93, 3.62, 3.25 (controls 1 of 9).
The variant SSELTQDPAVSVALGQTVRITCDGDSLRFYQANWYQQKPGQAPILVIYGKNNRPSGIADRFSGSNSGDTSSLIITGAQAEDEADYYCSSRDSSGFQVFFGAGTKLTVL showed 2.11, 2.40, 1.75 (controls 1 of 9).
The variant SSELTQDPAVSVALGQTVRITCEGDSLRYYYANWYQQKPGQAPILVIYGKDNRPPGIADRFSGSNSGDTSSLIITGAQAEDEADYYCSSRDSSGFQVFFGAGTKLTVL showed 2.67, 2.92, 2.73 (controls 3 of 9).
The variant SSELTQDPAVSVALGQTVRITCEGDSLKYYYANWYQQKPGQAPILVIYGKNNGPSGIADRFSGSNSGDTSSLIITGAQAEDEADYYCSSRDNSGFQVFFGAGTKLTVL showed 2.82, 1.97, 2.36 (controls 1 of 9).
The variant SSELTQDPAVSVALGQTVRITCEGDLLRYYYANWYQQKPGQAPILVIYGHNNRPSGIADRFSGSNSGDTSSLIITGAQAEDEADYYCSSRDSSGAQVFFGAGTKLTVL showed 3.43, 4.08, nd (controls 2 of 9).
The variant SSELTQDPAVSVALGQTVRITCEGDSLFYYYANWYQQKPGQAPILVIYGKNNRPSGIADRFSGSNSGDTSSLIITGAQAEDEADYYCSSRSSSGFQVFFGAGTKLTVL showed 2.49, 2.58, 2.74 (controls 1 of 9).
The variant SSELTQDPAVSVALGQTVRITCEGDSLFYYYMNWYQQKPGQAPILVIYGKVNRPSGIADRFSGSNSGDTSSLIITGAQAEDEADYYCSSRDSSGFQVFFGAGTKLTVL showed 3.93, 3.65, nd (controls 1 of 9).
The variant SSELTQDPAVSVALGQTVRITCEGDSLAYYYANWYQQKPGQAPILVIYGKNNRPSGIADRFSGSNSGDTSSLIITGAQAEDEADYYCSIRDSSGEQVFFGAGTKLTVL showed 3.58, nd, nd (controls 1 of 9).
The variant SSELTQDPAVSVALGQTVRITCKGDKLRYYYANWYQQKPGQAPILVIYGKNNRPSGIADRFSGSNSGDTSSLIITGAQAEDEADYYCSSRDSRGFQVFFGAGTKLTVL showed 4.26, 3.83, nd (controls 3 of 9).
The variant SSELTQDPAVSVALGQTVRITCEGDSLRTYYANWYQQKPGQAPILVIYPKNNRPSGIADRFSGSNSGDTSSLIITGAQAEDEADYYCSYRDSSGFQVFFGAGTKLTVL showed 4.28, 5.89, nd (controls 7 of 9).
The variant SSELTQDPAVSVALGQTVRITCEGDSLRYIYANWYQQKPGQAPILVIYGKWNNPSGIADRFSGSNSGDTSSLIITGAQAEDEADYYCSSRDSSGFQVFFGAGTKLTVL showed nd, nd, 3.99 (controls 1 of 9).
The variant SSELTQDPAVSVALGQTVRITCEGDSLRYYYANWYQQKPGQAPILVIYGKNCRPSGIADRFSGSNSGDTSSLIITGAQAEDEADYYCSSRDDSGFQVLFGAGTKLTVL showed nd, nd, 3.81 (controls 0 of 9).
The variant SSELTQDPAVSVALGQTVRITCEGDSLRYYYANWYQQKPGQAPILVIYGANNRDSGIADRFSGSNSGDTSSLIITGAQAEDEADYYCSSRASSGFQVFFGAGTKLTVL showed 2.32, nd, nd (controls 1 of 9).
The variant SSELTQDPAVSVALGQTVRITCEGDSLRYYGANWYQQKPGQAPILVIYGKNNRPSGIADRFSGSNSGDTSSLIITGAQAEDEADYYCSSRGSSGFQVLFGAGTKLTVL showed 3.50, nd, 2.62 (controls 1 of 9).
The variant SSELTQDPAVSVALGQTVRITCEGDSLEYYYANWYQQKPGQAPILVIYGKNNRPSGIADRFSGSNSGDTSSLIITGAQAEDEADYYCSSRDSSGPQAFFGAGTKLTVL showed nd, nd, nd (controls 0 of 9).
The variant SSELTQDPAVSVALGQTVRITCEGDSLRYYYANWYQQKPGQAPILVIYGINNRRSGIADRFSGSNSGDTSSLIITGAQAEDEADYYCSSRDSSGFQVFFGAGTKLTVL showed 3.82, 3.58, nd (controls 5 of 9).
The variant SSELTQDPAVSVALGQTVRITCEGDTLRYYCANWYQQKPGQAPILVIYGKNNRPSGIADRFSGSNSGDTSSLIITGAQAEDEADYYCMSRDSSGFQVFFGAGTKLTVL showed 2.61, 2.50, 3.55 (controls 2 of 9).

The last 3 entries again:

| VL | log10 Kd (nM) by replicate | signal with controls |
|---|---|---|
| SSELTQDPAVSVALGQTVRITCEGDSLEYYYANWYQQKPGQAPILVIYGKNNRPSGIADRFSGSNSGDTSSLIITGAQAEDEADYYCSSRDSSGPQAFFGAGTKLTVL | nd, nd, nd | 0 of 9 |
| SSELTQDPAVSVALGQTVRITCEGDSLRYYYANWYQQKPGQAPILVIYGINNRRSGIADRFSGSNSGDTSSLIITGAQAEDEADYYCSSRDSSGFQVFFGAGTKLTVL | 3.82, 3.58, nd | 5 of 9 |
| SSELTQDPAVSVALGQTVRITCEGDTLRYYCANWYQQKPGQAPILVIYGKNNRPSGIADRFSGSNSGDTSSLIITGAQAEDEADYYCMSRDSSGFQVFFGAGTKLTVL | 2.61, 2.50, 3.55 | 2 of 9 |